Data: PMC3489161 (Pharmaceutical research, 2011)

Key:
P-gp (ABCB1) = conditions: P-gp knockout mice; cited from earlier work
[1] = 14C-lapatinib distribution after intravenous dosing; assay type: in vivo, mice; conditions: 10 mg/kg i.v., 30 min
[2] = Brain-to-plasma distribution after i.v. lapatinib infusion to steady state; assay type: in vivo, mice; conditions: lowered by ∼0.01 mL/g
[3] = female, NuNu, mouse, in vivo, po, 100 mg/kg
[4] = system: P-gp (ABCB1) and BCRP (ABCG2); conditions: knockout of both P-gp and BCRP; cited from earlier work
[5] = cited from earlier work

Average accumulation in brain metastases relative to normal brain [1] [fold]	Brain/plasma ratio of Polli et al after vascular correction [2]	Brain-to-plasma concentration ratio after vascular correction ([3]; 2 h)	Mean brain-to-plasma ratio in brain metastases ([3]; 2 h)	Brain-to-plasma concentration ratio after vascular correction ([3]; 12 h)	Mean brain-to-plasma ratio in brain metastases ([3]; 12 h)	Molecule	Increase of brain-to-plasma ratio (P-gp (ABCB1))	Steady-state brain-to-plasma distribution ratio (P-gp (ABCB1))	Brain-to-plasma lapatinib ratio [4]	Increase of brain-to-plasma lapatinib ratio [4]	Concentration in CSF, times lower than in serum [5] [times]
3.2	0.02-0.03	0.013	0.09	0.028	0.26	CS(=O)(=O)CCNCc1ccc(-c2ccc3ncnc(Nc4ccc(OCc5cccc(F)c5)c(Cl)c4)c3c2)o1 [lapatinib, N-{3-chloro-4-[(3-fluorobenzyl)oxy]phenyl}-6-[5-({[2-(methylsulfonyl)ethyl]amino}methyl)-2-furyl]-4-quinazolinamine]	4-5 fold	0.08 – 0.15	1.2- 1.7	50-60 fold	–
–	–	–	–	–	–	trastuzumab: a humanized monoclonal antibody to HER2	–	–	–	–	300

Like-named read-outs stand apart in the source and are kept apart here.
